In patent US10525105B2, “Peptide for repairing cartilage and treating osteoarthritis” (Guangzhou Link Health Pharma Co., Ltd., priority 2016, dated 2020) one finds half-life data, which are given here for one substance.

Details of this series: species or system New Zealand rabbits. As to conditions: rabbit, in vivo, iv, 0.5 mg/kg. The protocol: In order to confirm that the synthesized BM23 peptide has a relatively long half-life, the half-life of BM23 peptide and BMP-2 in rabbits were detected by LC/MSMS method. LC/MSMS methodology was established, Finnigan TSQ Discovery Max LC/MS was equipped with Surveyor HPLC system. The detection limit was 1-1000 ng/ml, and the recovery rate was over 80%. Six New Zealand rabbits were randomly divided into two groups (three rabbits in each group). The two groups were intravenously injected with 0.5 mg/kg of BM23 peptide and 0.5 mg/kg of BMP-2, respectively; 0.5 ml of blood samples were taken at 5, 10, 15, 30, 60, 120, 180, 300 minutes and placed in an anticoagulant tube, respectively; and centrifuged at 2000 rpm to remove the blood plasma, and then stored at −20° C. for measurement. The blood concentration was measured by LC/MSMS method, 100 μl of blood plasma was taken, 500 μl of a mixed solvent containing IS 2000 ng/ml of acetonitrile and methanol solution at a ratio of 70:30 was added, shaken, and centrifuged at 12000 rpm for 10 minutes. 20 μl of supernatant was injected for LC/MSMS analysis. The main pharmacokinetic parameters were calculated by using 3P97 pharmacokinetic software.

For the substance “BMP-2: bone morphogenetic protein BMP-2, purchased from Beijing Yiqiao Shenzhou Biotechnology Co., Ltd.”, the half-life (as a rule, the time needed for the level to fall by half in the phase considered) turned out to be 23 ± 11 min.
